The entries are a selection whose mix differs from that of the whole data set. Active and inactive are the calls of the source.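 The calls were made as follows: active = activation above the mean of all tested compounds plus 3 SD, set per screening run (cut at about 8.8% in these data); inactive = the rest.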

Sequences of proteins named here, by UniProt entry; tags and fusion partners are left off. A change or cut given only in a name is not applied to a line headed by its entry.
UniProt P30291: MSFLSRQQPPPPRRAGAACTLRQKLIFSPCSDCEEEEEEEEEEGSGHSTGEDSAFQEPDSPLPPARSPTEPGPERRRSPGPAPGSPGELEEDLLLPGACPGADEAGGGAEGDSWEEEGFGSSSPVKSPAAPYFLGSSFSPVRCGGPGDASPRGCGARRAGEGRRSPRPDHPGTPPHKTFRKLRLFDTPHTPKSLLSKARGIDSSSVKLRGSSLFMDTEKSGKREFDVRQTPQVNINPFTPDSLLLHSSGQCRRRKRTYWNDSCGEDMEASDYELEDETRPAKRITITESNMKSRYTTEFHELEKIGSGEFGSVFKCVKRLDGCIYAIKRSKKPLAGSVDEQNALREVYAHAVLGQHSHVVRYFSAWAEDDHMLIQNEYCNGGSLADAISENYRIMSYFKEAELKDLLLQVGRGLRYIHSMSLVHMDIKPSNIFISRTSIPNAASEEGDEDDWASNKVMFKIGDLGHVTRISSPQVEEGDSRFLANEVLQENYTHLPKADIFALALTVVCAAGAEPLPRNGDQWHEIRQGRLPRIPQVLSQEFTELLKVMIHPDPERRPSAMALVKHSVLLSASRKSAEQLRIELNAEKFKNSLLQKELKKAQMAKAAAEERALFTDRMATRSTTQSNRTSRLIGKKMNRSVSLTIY

The test deals with Wee1-like protein kinase (Homo sapiens) (UniProt P30291). The experiment in a line: compounds stabilizing Wee1-luciferase fusion – cell-based, HeLa, Wee1K328M-luciferase, luminescence, primary screen (AID 1321).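 Also: cells exposed to compound for 20 h before luminescence read; 0% = DMSO alone and 100% = MG132 at 30 µM.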 To be noted: HeLa Luc-Wee1K328M stability, at 5 µM, active compounds read high, 100% = proteasome inhibitor MG132 effect.
Take `Nc1cccc2c([As](=O)(O)O)cccc12`: the reporter increase is inactive: 0.95%.

For the compound `Cc1ccc(NCCc2c([N+](=O)[O-])cc([N+](=O)[O-])cc2[N+](=O)[O-])cc1`, the reporter increase was inactive: 0.63%.

`CCOP(=O)(Nc1cccc2ccccc12)OCC`: the reporter increase was inactive: -2.39%.

As to `COc1cc(C2NCCC3(OCCO3)C2(C)C)cc(OC)c1OC` (centres undefined), the reporter increase was inactive: -0.87%.

On to `O=[As](O)(O)c1cccnc1`, for which the reporter increase is inactive: 0.05%.

Take `COc1cc(C(=O)NCC2(N3CCOCC3)CCCCC2)cc(Cl)c1OC(C)C`: the reporter increase was inactive: 3.92%.

As for `O=C(OC1CN2CCC1CC2)c1ccc(Cl)cc1` (centres undefined), the reporter increase is inactive: -1.66%.

With `Cc1cccc(OCC(=O)OC2CN3CCC2CC3)c1` (centres undefined), the reporter increase was inactive: 0.06%.

With `O=[As](O)(c1cccc(O)c1)c1cccc(O)c1`, the reporter increase was inactive: 2.9%.

Consider `O=[N+]([O-])c1ccc2c(c1)nnn2O`, for which the reporter increase is inactive: -1.04%.

With `CCOP1(=S)c2c(C)nn(CCC#N)c2N=C(c2ccc(F)cc2)N1C` (centres undefined), the reporter increase is inactive: -0.96%.

For the compound `CS(=O)(=O)c1cc([N+](=O)[O-])c2no[n+]([O-])c2c1`, the reporter increase was inactive: -1.92%.

For `O=P(Nc1nccs1)(Oc1ccccc1)Oc1ccccc1`, the reporter increase is inactive: 1.06%.

`O=P(Nc1nccs1)(c1ccccc1)c1nc2ccccc2s1` (centres undefined): the reporter increase was inactive: 1.98%.

Turning to `CCOP1(=S)c2c(C)nn(CCC#N)c2N=C(c2ccccc2F)N1C` (centres undefined), the reporter increase is inactive: -0.29%.

On to `O=C(O)COc1ccc([As](=O)(O)O)cc1[N+](=O)[O-]`, for which the reporter increase is inactive: 4.42%.

Turning to `Nc1ccccc1[As](=O)(O)c1ccccc1`, the reporter increase was inactive: -2.7%.

Consider `O=P1(Nc2ncccn2)COc2ccccc2OC1`, for which the reporter increase was inactive: 0.38%.

On to `O=[As](O)(c1cccs1)c1cccs1`, for which the reporter increase was inactive: -1.7%.

For `Cc1ccc(OCC(=O)OC2CN3CCC2CC3)cc1` (centres undefined), the reporter increase was inactive: 3.77%.

Regarding `O=P1(Nc2ccc(Br)cn2)COc2ccccc2OC1`, the reporter increase is inactive: 1.06%.

For `Nc1cccc([As](=O)(O)c2ccccc2)c1`, the reporter increase is inactive: -1.07%.

As for `CC1CCC(C(C)C)C(OP(=O)(Nc2ccccn2)c2ccccc2)C1` (centres undefined), the reporter increase was inactive: 1.12%.

Consider `Cc1nn(-c2ccccc2)c2c1P(=O)(N1CCOCC1)N(C)C(c1ccccc1)=N2` (centres undefined), for which the reporter increase was inactive: 0.99%.

With `O=C(/C=C/c1ccccc1)OC1CN2CCC1CC2` (centres undefined), the reporter increase is inactive: -3.33%.

For the compound `CN(C)C1(CNC(=O)c2ccc(S(C)(=O)=O)cc2)CCCCC1`, the reporter increase was active: 14.7%.

For `CC1(CBr)Cn2c(nc3ccccc3c2=O)S1` (centres undefined), the reporter increase is inactive: -0.23%.

For the compound `O=[As](O)(c1ccccc1Br)c1ccccc1Br`, the reporter increase was inactive: 0.18%.

With `CN(C(=O)Cc1ccc(Cl)c(Cl)c1)[C@@H]1CCCC[C@H]1N1CCCC1`, the reporter increase is inactive: -1.8%.

For the compound `CC(C)/C=N\N=C(\N)N[N+](=O)[O-]`, the reporter increase is inactive: 3.83%.

Consider `CCOP(=O)(Nc1ccc(C)cn1)OCC`, for which the reporter increase is inactive: -0.98%.

Take `O=P1(Nc2ccccn2)COc2ccccc2OC1`: the reporter increase is inactive: -0.92%.

Turning to `CC(C)(C)C(=O)NC(Sc1ncccn1)C(Cl)(Cl)Cl` (centres undefined), the reporter increase is inactive: 0.11%.

In the case of `Clc1n[nH]nc1-c1nn[nH][15n]1`, the reporter increase was inactive: -3.04%.

Regarding `CCOC(=O)c1ccc(NC(=O)C(C)(CCl)SC)cc1` (centres undefined), the reporter increase was inactive: -1.18%.

For `CCC(C)N(CC(C)C)C(=S)SC(NC(C)=O)C(Cl)(Cl)Cl` (centres undefined), the reporter increase was inactive: -1.64%.

Turning to `COP1(=S)c2c(C)nn(CCC#N)c2N=C(c2ccc(F)cc2)N1C` (centres undefined), the reporter increase is inactive: 4.44%.

With `O=C(COc1ccccc1)OC1CN2CCC1CC2` (centres undefined), the reporter increase was inactive: -3.57%.

For the compound `CCOC(=O)Nc1cccc([As](=O)(O)O)c1`, the reporter increase was inactive: -0.7%.

For `O=[N+]([O-])c1ccc(Nc2ccc(Oc3ccc([N+](=O)[O-])cc3[N+](=O)[O-])cc2)c([N+](=O)[O-])c1`, the reporter increase is inactive: -0.66%.

`Cc1cc(SC(NC=O)C(Cl)(Cl)Cl)ncn1` (centres undefined): the reporter increase is inactive: -0.44%.

With `O=P(Nc1ccccn1)(c1cccc2ccccc12)c1cccc2ccccc12`, the reporter increase was active: 19.9%.

As to `CCOC(=O)Nc1ccc([As](=O)(O)O)c(O)c1`, the reporter increase was inactive: 1.02%.

Consider `Cc1cc(SC(NC(=O)c2ccccc2)C(Cl)(Cl)Cl)nc(C(C)C)n1` (centres undefined), for which the reporter increase is inactive: -3.27%.

For `CC(C)c1ccc(OP(=O)(Nc2ccccn2)Oc2ccccc2F)cc1` (centres undefined), the reporter increase was inactive: -2.47%.

Regarding `ClCCSc1nnc(-c2cccnc2)o1`, the reporter increase is inactive: 1.2%.

Turning to `O=[N+]([O-])c1cc([N+](=O)[O-])c(-c2ccn[nH]2)s1`, the reporter increase is inactive: 1.54%.

With `CC(C)NC(=O)NP(=O)(Oc1ccccc1)Oc1ccccc1`, the reporter increase was inactive: 3.32%.

For `CCN(CC)C(=S)SC(NC=O)C(Cl)(Cl)Cl` (centres undefined), the reporter increase is inactive: -1.25%.

For `C[As](=O)(O)c1cccc(C(=O)O)c1`, the reporter increase was inactive: 1.27%.

As to `O=[As](O)(c1ccc(O)cc1)c1ccccc1O`, the reporter increase was inactive: -1.83%.

For `Cc1ccc2nc3c(c(C)c2c1)CC(C(Cl)Cl)S3` (centres undefined), the reporter increase was inactive: 0.24%.

Take `Cc1ccc(OP(=O)(Nc2ccc([N+](=O)[O-])cn2)Oc2ccc(C)cc2)cc1`: the reporter increase is inactive: -2.27%.

Take `COc1ccc(N/C(=N/P(=O)(N2CCOCC2)N2CCOCC2)N2CCOCC2)cc1`: the reporter increase was inactive: 4.03%.

As to `Cc1cc(=O)[nH]c(N[N+](=O)[O-])n1`, the reporter increase was inactive: -2.57%.

In the case of `O=C(OC1CN2CCC1CC2)C12CC3CC(CC(C3)C1)C2` (centres undefined), the reporter increase was inactive: 0.66%.

In the case of `Cc1c2c(nc3ccccc13)SC(C(Cl)Cl)C2` (centres undefined), the reporter increase is inactive: 1.19%.

As to `COc1cc(I)ccc1[As](=O)(O)O`, the reporter increase is inactive: 8.49%.

With `COc1ccc2nc(NP(=O)(c3ccccc3)c3ccccc3)sc2c1`, the reporter increase was inactive: -0.27%.
